Assay: Metabolic stability in human liver microsome assessed as half life preincubated for 10 mins followed by NADPH addition and measured after 60 mins by LC-MS/MS analysis
Format: ADME
Conditions: liver microsomes, time 70 min

Work on O=C(O)Cc1ccccc1Nc1c(Cl)cccc1Cl [DICLOFENAC] yielded a half-life of 5.9 min.

From ChEMBL document CHEMBL5329208 (RSC Med Chem, 2023)
